Binding of CDR-mutated scFvs to a peptide of the spike HR2 region

From the AlphaSeq antibody data of Li et al. 2023 (doi:10.1038/s41467-023-39022-2), copy in the FLAb collection.

Target: peptide PDVDLGDISGINAS, taken from heptad repeat 2 (HR2) of SARS-CoV-2 spike.

Parent scFv Ab-14: VH joined to VL by a 15-residue (Gly4Ser)3 linker. Changes lie in the light chain CDRs alone.
VH: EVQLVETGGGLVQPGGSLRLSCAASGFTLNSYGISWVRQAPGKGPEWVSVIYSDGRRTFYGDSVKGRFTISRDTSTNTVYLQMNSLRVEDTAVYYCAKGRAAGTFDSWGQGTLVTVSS
VL: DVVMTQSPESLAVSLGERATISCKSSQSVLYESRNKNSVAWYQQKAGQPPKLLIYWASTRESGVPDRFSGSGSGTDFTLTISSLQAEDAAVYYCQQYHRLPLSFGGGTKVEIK

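Phage display of a naive human antibody library on the peptide gave the parent. These sequences belong to a second round, designed from the earlier measurements on random variants of the parent. Group labels follow the data file (Ctrl: baseline library sampled from a position-specific scoring matrix, with some repeated check sequences; Rand: our label for a block that the file lists under HC and that is probably the random mutants of the ten best first-round binders; En: ensemble of fine-tuned language models; GP: Gaussian process model; HC: hill climbing; Gen: genetic algorithm; Gibbs: Gibbs sampling; a sequence that several methods proposed may carry one label only). AlphaSeq pools MATa yeast showing the antibodies with MATalpha yeast showing the peptide. Mating (16 h, 30 °C) was followed by selection of diploids and sequencing of their barcodes. Each replicate has its own calibration line, from reference interactions of the BCL2 family. Each pool was mated in six replicate cultures.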

Each variant is given by its three light chain CDRs, as the data file delimits them; those of the parent are KSSQSVLYESRNKNSVA, WASTRES, QQYHRLPLS.
Values are apparent Kd, the geometric mean of the replicates that gave a signal; lower means stronger binding.
"no signal" means that the variant was in the library but no mating with the target was seen in any replicate; the authors take this as a sign of poor binding, and no number exists.
The authors' rule: three or more of the six replicates give a measured affinity, fewer mean a poor binder.
Of ten entries with the parent sequence, four were seen in most replicates (averages 2.2 nM to 240 nM), three in one and three in none, so single entries are noisy.
A sequence measured in both rounds can read differently, since the two assays cover different ranges.
Three control strains display no target. For all light chain designs, 4% of the pairings with them gave a signal, with a median of 430 nM and one signal in twenty below 38 nM, so weak values seen in few replicates may be background. Also given: how often the same scFv was detected with the empty control strains.

| CDR-L1 | CDR-L2 | CDR-L3 | group | Kd (apparent) | replicates with signal | empty controls |
|---|---|---|---|---|---|---|
| KESQSVLYESRNKNSVA | GASTRES | QQYHRLPLS | GP_HC | 630 pM | 6 of 6 | 1 of 18 |
| KLSQSELYESRNKNNVA | DASTRES | QQYHRLPLS | GP_Gen | 460 pM | 6 of 6 | 1 of 18 |
| KMSQSVLMETRNKNSVA | DASLRES | QQYHRLPLS | GP_HC | 510 pM | 6 of 6 | 1 of 18 |
| KSLQSVLYESRDKNSVA | HASTRED | QQYHWLPLS | Rand | 3.3 nM | 6 of 6 | 1 of 18 |
| KISQLANFLGKNKNSVA | QMSTRES | QQYDRLPLS | En_HC | 1.6 nM | 6 of 6 | 0 of 18 |
| KLMQSQLYESRNKNSVA | NASQRES | QQYHRLPLS | GP_Gen | 600 pM | 6 of 6 | 0 of 18 |
| KLSQLGLYESRNKNSVA | NASTRES | QQYHRLPLS | GP_Gen | 420 pM | 6 of 6 | 0 of 18 |
| KSSISYLAESRNENSVA | EASTREQ | QQYHRLPLS | GP_HC | 8.0 nM | 6 of 6 | 0 of 18 |
| MSSQSWLYESRNKNSVA | GASTRES | QDYHRLPLS | GP_HC | 2.2 nM | 6 of 6 | 0 of 18 |
| KSSQSVLYESRNKNSVA | NASTRES | QQYSRLKLS | Ctrl | no signal | 0 of 6 | 0 of 18 |
| KLSQSCLYESRNKNSVA | EASTRES | QDYHRLPLS | GP_Gen | 1.1 nM | 6 of 6 | 5 of 18 |
| HLSDTVMQGSYYRNSVA | QESTRAD | QQYHRLPLS | En_HC | 8.6 nM | 6 of 6 | 0 of 18 |
| KSSQSVLYESRNKNSVA | TASTRES | QQYPRNPLS | Ctrl | no signal | 0 of 6 | 0 of 18 |
| KLYSAKQGDIAQMQNVA | AADVLTQ | QQYNKLPLS | En_Gibbs | 2.7 nM | 6 of 6 | 3 of 18 |
| TISQSAQMESHNKNSVA | DLSVRGS | QQYHRLPLS | En_HC | 1.7 nM | 6 of 6 | 1 of 18 |
| KLQQSVLYESRNKNSVA | NASTRLM | QQYHRLPLS | GP_Gen | 1.1 nM | 6 of 6 | 1 of 18 |
| KLSQSQLYESRNSKSVA | DASTRLS | QQYHRLPLS | GP_Gibbs | 950 pM | 6 of 6 | 3 of 18 |
| KSSISYLYESRNKSSVA | EASTRES | QTYHRLPLS | Rand | 51 nM | 6 of 6 | 2 of 18 |
| HSLPSVLFESRNKNSVA | NASTRES | LQYHRLVLC | Rand | 91 nM | 4 of 6 | 2 of 18 |
| SITQLVGWGSRNKNSVA | QMETREN | QQYDRLPLS | En_HC | 2.6 nM | 6 of 6 | 0 of 18 |
| KLSQSQEYESININSVA | NASTRLT | QQYHRLPLS | GP_Gibbs | 910 pM | 6 of 6 | 2 of 18 |
| KSSQSTLYESGNKNSVA | HASTRES | QQYHRLPLS | GP_HC | 2.0 nM | 6 of 6 | 0 of 18 |
| KCEQWVDYESRNKNSVA | QASTREQ | QQYHRLPLS | GP_Gibbs | 580 pM | 6 of 6 | 0 of 18 |
| KFQQQDLYSSRNKNSVA | NASTRSQ | QQYHRLPLS | GP_Gibbs | 600 pM | 6 of 6 | 0 of 18 |
| MVSQLMVWGLHAKNSIA | EAQTRLN | QQYDRLPLF | En_Gen | 63 nM | 2 of 6 | 0 of 18 |
| KVSQSWLMESRNKNSVA | EASTRES | QQYHRLPLS | GP_HC | 840 pM | 6 of 6 | 1 of 18 |
| KMSQSVLKESRNKNSVA | HASTREF | QQYHRLPLS | Ctrl | 4.1 nM | 6 of 6 | 1 of 18 |
| KSSQSVLYESRNFNSVA | WAITRES | QQYTRLPLS | Ctrl | no signal | 0 of 6 | 1 of 18 |
| KCSQSVLYESRNKNAVA | DASTRES | QQYHRLPLS | GP_HC | 230 pM | 6 of 6 | 1 of 18 |
| KLSQSFMYEERNPNSVA | NASKREL | QQYHRLPLS | GP_Gibbs | 450 pM | 6 of 6 | 1 of 18 |
| TISQMTSLFSMSINNVA | EVSTREE | QQYDRLPLM | En_Gen | 5.2 nM | 6 of 6 | 1 of 18 |
| MMSMMPNEPTIDSNAIA | DHVQRNT | QQYDRLPLS | En_Gibbs | 5.4 nM | 1 of 6 | 1 of 18 |
| KSGQSVLYESRNTNSVA | WAVERES | QTYHRLPLS | Ctrl | 10 nM | 5 of 6 | 0 of 18 |
| KKSQSVLYESRNKNSVA | WVVTRES | QQYHRLPLS | Ctrl | no signal | 0 of 6 | 1 of 18 |
| TISGTLMFGMRNRSNVA | EVSERLN | QQYDRLPLF | En_Gen | 380 nM | 4 of 6 | 0 of 18 |
| MITGSMENQESNQNPVA | SATCKAP | QQYFRLPLM | En_Gibbs | 12 nM | 6 of 6 | 1 of 18 |
| KSSQSVLYESRNSNSVA | WASTRES | QGYHRLPLS | Ctrl | 66 nM | 1 of 6 | 0 of 18 |
| TLTQVQGMESHQKNSVA | DLSTRGS | QQYHRLPLS | En_HC | 540 pM | 6 of 6 | 0 of 18 |
| KSDQSVLYESRNKNSVA | NASTREV | QQYHRLPLS | Ctrl | 1.9 nM | 6 of 6 | 1 of 18 |
| KVSQQGLYGDRNANSVA | NASTRED | QQYHRLPLS | GP_Gibbs | 530 pM | 6 of 6 | 3 of 18 |
| KWSILDLGGDRNKNSVA | HASCREQ | QQYHRLPLS | GP_Gibbs | 14 nM | 6 of 6 | 0 of 18 |
| KWSDSVLYESRNKNSVA | WASERES | QSIHRLPLS | Ctrl | 34 nM | 1 of 6 | 0 of 18 |
| KVSQSVLYESRNKNSVA | NASTRMS | QQYHRLPLS | GP_Gen | 740 pM | 6 of 6 | 1 of 18 |
| NLTTGYEQGALNTDNVA | HGNMREA | QQYYRLPLS | En_Gibbs | 780 pM | 6 of 6 | 0 of 18 |
| KQSQMVLFESRNKNSVA | DASTRES | QQYHRLPLS | GP_HC | 640 pM | 6 of 6 | 0 of 18 |
| SLMQSVLYESRNKNSVA | HASVRED | QQYHRLPLS | GP_HC | 1.0 nM | 6 of 6 | 0 of 18 |
| KSGQGVLYESRNKNSVA | GASTRES | QQYHRLPLS | En_HC | 1.3 nM | 6 of 6 | 0 of 18 |
| IVSQLMMWGMVAKNSIA | EAVTRLN | QQYDRLPLI | En_Gen | no signal | 0 of 6 | 0 of 18 |
| KESQSEPYESRNKNSVA | NASYRMS | QQYHRLPLS | GP_Gibbs | 1.7 nM | 6 of 6 | 1 of 18 |
| KLSQSVLYEDRNKNSVA | NASTREM | QQYHRLPLS | GP_Gen | 440 pM | 6 of 6 | 1 of 18 |
| KLSQSMPYESRNKNSVA | NASTRMS | QQYHRLPLS | GP_Gen | 590 pM | 6 of 6 | 1 of 18 |
| KLPQSEGYESRNKNSVA | NASTRES | QQYHRLPLS | GP_Gen | 900 pM | 6 of 6 | 0 of 18 |
| HISQSVMTESVWRNSVA | HQSTREQ | QQYDRLPLS | En_HC | 13 nM | 6 of 6 | 2 of 18 |
| HSSPSVLYESRNKNSVA | HASTRES | QQYHRLPLS | GP_HC | 1.6 nM | 6 of 6 | 0 of 18 |
| HIDTINRGEDMKQDPIA | QADHREQ | QQYFQLPLI | En_Gibbs | 18 nM | 6 of 6 | 0 of 18 |
| KFSQSVLYESRNSNRVA | NASTRES | QQYHRLPLS | GP_HC | 3.2 nM | 6 of 6 | 3 of 18 |
| MISNLMNMGQFAINSVA | QASIRNE | QQYDRLPLV | En_Gen | 13 nM | 6 of 6 | 2 of 18 |

Top 7 of the variants detected in all replicates, tightest first:

CDR-L1	CDR-L2	CDR-L3	group	Kd (apparent)	replicates with signal	empty controls
KCSQSVLYESRNKNAVA	DASTRES	QQYHRLPLS	GP_HC	230 pM	6 of 6	1 of 18
KLSQLGLYESRNKNSVA	NASTRES	QQYHRLPLS	GP_Gen	420 pM	6 of 6	0 of 18
KLSQSVLYEDRNKNSVA	NASTREM	QQYHRLPLS	GP_Gen	440 pM	6 of 6	1 of 18
KLSQSFMYEERNPNSVA	NASKREL	QQYHRLPLS	GP_Gibbs	450 pM	6 of 6	1 of 18
KLSQSELYESRNKNNVA	DASTRES	QQYHRLPLS	GP_Gen	460 pM	6 of 6	1 of 18
KMSQSVLMETRNKNSVA	DASLRES	QQYHRLPLS	GP_HC	510 pM	6 of 6	1 of 18
KVSQQGLYGDRNANSVA	NASTRED	QQYHRLPLS	GP_Gibbs	530 pM	6 of 6	3 of 18